Earlier results on one substance are cited in patent publication US9789187B2, “Stable pharmaceutical composition for atherosclerosis” (Cadila Pharmaceuticals Limited, priority 2009, dated 2017).

The conditions of this series: co-administered drug raises simvastatin AUC; cited from earlier work.

For Amlodepine, the “increase of AUC of simvastatin” value is reported as 30%.
